The values that follow are results of earlier work, collected in US20070129329A1, “Stabilized pharmaceutical composition of pramipexole and method of preparation thereof” (ALEMBIC LIMITED, priority 2005, published 2007).

Structures are written as SMILES.

For this data set the following is noted: drug substance itself.

On to `CCCN[C@H]1CCc2nc(N)sc2C1.Cl.Cl.O` [pramipexole dihydrochloride, (S)-2-amino-4,5,6,7-tetrahydro-6-(propylamino) benzothiazole dihydrochloride monohydrate], for which the “stability in solid state” value is “good stability”.
